According to PubChem BioAssay AID504894 (National Center for Advancing Translational Sciences (NCATS), 2011):
This is a selection; strong and weak results do not stand in their true shares. Activity calls are given as the source filed them. The call rests on the fitted dose curve; in most records, active means well fitted activation curve with a large enough effect; inconclusive means small, poorly fitted or top-dose-only effect, or another doubt; inactive means no such curve, though single readings can be large or run the other way.

Experiment: Activators of T cell receptors: qHTS campaign; further: % of control where 0% means no effect
Details: primary human leukocytes, anti-CD3, IL-2 HTRF, 48 h; at 9.22 µM (top of the series) unless noted
Text: Normally activation of naive T cells requires two signals. 1. A signal through the T cell receptor (TCR) which provides antigen specificity to the response. 2. Signals through co-stimulatory molecules, which are necessary for proliferation, survival and cytokine production. In the absence of co-stimulatory signals T cells are not effectively activated, and may even be rendered anergic or unresponsive to subsequent signaling. This lack of costimulation has been shown in multiple model systems to be a major factor in the limited strength and effectiveness of anti-tumor T cell responses. The goal of this project is to identify small molecule compounds that will stimulate T cell activation in the presence of TCR signaling but in the absence of co-stimulatory signals, thereby allowing activation of naive T cells in the absence of co-stimulation. Identification of such compounds would have clear experimental and clinical applications in instances where desirable antigen-specific immune responses are not generated due to a lack of co-stimulation, for example in the generation of anti-tumor responses. In collaboration between the National Cancer Institute and NIH Chemical Genomics Center, a high-throughput amenable screen was developed to discover small molecules that co-stimulate and activate human T cell receptors. The screen will be carried out using a novel homogeneous time resolved fluorescence energy transfer (HTRF) assay to measure production of the cytokine IL-2 by activated T cells and will be tested against the NIH Molecular Libraries Small Molecule Repository (MLSMR). NIH Chemical Genomics Center [NCGC] NIH Molecular Libraries Probe Centers Network [MLPCN] MLPCN Grant: MH090820-01 Assay Submitter (PI): Richard Hodes, National Cancer Institute, NIH
Primary human leukocytes are incubated with a-CD3 beads and compounds for 48 hr. The amount of secreted IL-2 is then assayed with a HTRF IL-2 kit. The presence of IL-2 cytokine captures the detection reagents and brings the a-IL-2-K and a-IL-2-d2 into close proximity. Upon excitation with 320nm light, the europium cryptate is capable of transferring energy to acceptor molecules within close proximity, resulting in acceptor molecule emission at 665nm.
With CC1=NCCc2c1[nH]c1ccccc21.O=[N+]([O-])c1cc([N+](=O)[O-])c(O)c([N+](=O)[O-])c1 the activation of IL-2 secretion was inactive: -1.8% [at 46.1 µM].
In the case of Cc1cc(C)cc(OP(C)(=O)Nc2ccc(C)cc2C)c1 (configuration not stated), the activation of IL-2 secretion is reported as inactive: 4.04%.
For CCOC(=O)c1ccc(NP(C)(=O)Oc2cc(C)cc(C)c2)cc1 (configuration not stated), the activation of IL-2 secretion was inactive: 1.9%.
For COc1ccccc1OP(C)(=O)Nc1cccc(Br)c1 (configuration not stated), the activation of IL-2 secretion was inactive: -0.0111%.
In the case of CP(=O)(Nc1cccc(Br)c1)Oc1ccccc1 (configuration not stated), the activation of IL-2 secretion is reported as inactive: 14%.
In the case of Cc1ccc(C)c(NP(C)(=O)Oc2ccccc2)c1 (configuration not stated), the activation of IL-2 secretion is reported as inactive: -4.41%.
For Cc1nc2ccc3ccccc3c2s1.O=[N+]([O-])c1cc([N+](=O)[O-])c(O)c([N+](=O)[O-])c1, the activation of IL-2 secretion was inactive: 0.928%.
With O=[N+]([O-])c1cc([N+](=O)[O-])c(-c2cnn(-c3ccccc3)c2)c([N+](=O)[O-])c1 the activation of IL-2 secretion was inactive: -8.93%.
With O=[N+]([O-])c1cc([N+](=O)[O-])c(Nc2nnnn2CCO)c([N+](=O)[O-])c1 the activation of IL-2 secretion was inactive: -2.05%.
For CC1=C2N=C(C=C3N=C(C(C)=C4[N-][C@@](C)([C@@H]5N=C1[C@](C)(CCC(=O)NC[C@@H](C)OP(=O)([O-])O[C@H]1[C@@H](O)[C@@H](n6cnc7cc(C)c(C)cc76)O[C@@H]1CO)[C@H]5CC(N)=O)[C@@](C)(CC(N)=O)[C@@H]4CCC(N)=O)[C@@](C)(CC(N)=O)[C@@H]3CCC(N)=O)C(C)(C)[C@@H]2CCC(N)=O.[C-]#N.[Co+3], the activation of IL-2 secretion was inactive: -6.01%.
In the case of CP(=O)(Nc1ccc(SC(F)(F)F)cc1)Oc1ccccc1 (configuration not stated), the activation of IL-2 secretion is reported as inactive: -1.46% [at 46.1 µM].
In the case of CCCOc1ccc(NP(C)(=O)Oc2ccc(Cl)cc2)cc1 (configuration not stated), the activation of IL-2 secretion is reported as inactive: 4.6%.
In the case of CN1CCCCC1COC(=O)C1(O)c2ccccc2CCc2ccccc21 (configuration not stated), the activation of IL-2 secretion is reported as inactive: -12.4% [at 46.1 µM].
With COc1ccccc1OP(C)(=O)Nc1ccccc1 (configuration not stated) the activation of IL-2 secretion was inactive: -2.69%.
For CP(=O)(Nc1ccccc1Br)Oc1ccccc1 (configuration not stated), the activation of IL-2 secretion was inactive: 1.17% [at 46.1 µM].
In the case of CP(=S)(Nn1cnnc1)Oc1ccccc1 (configuration not stated), the activation of IL-2 secretion is reported as inactive: 4.26%.
In the case of CCc1ccc(OP(C)(=O)N2CCN(c3ccc([N+](=O)[O-])cc3)CC2)cc1 (configuration not stated), the activation of IL-2 secretion is reported as inactive: -7.51%.
In the case of CP(=O)(NC(=O)Nc1ccccc1)Oc1ccccc1 (configuration not stated), the activation of IL-2 secretion is reported as inactive: -3.68%.
For Cc1cc(C)cc(OP(C)(=O)Nc2ccc(SC(F)(F)F)cc2)c1 (configuration not stated), the activation of IL-2 secretion was inactive: 5.98% [at 46.1 µM].
With CP(=O)(Nc1ccc(SC(F)(F)F)cc1)Oc1ccc(Cl)cc1 (configuration not stated) the activation of IL-2 secretion was inactive: -4.42%.
For Cc1cccc(C)c1OP(C)(=O)Nc1ccc(SC(F)(F)F)cc1 (configuration not stated), the activation of IL-2 secretion was inactive: -4.61% [at 46.1 µM].
With CP(=O)(Oc1ccccc1)OC(c1ccccc1)C(F)(F)F (configuration not stated) the activation of IL-2 secretion was inactive: 2.32%.
With CCOP(C)(=S)SCC(=O)NC(C)C(=O)O (configuration not stated) the activation of IL-2 secretion was inactive: -3.93%.
With O=[N+]([O-])c1cc([N+](=O)[O-])c(O)c([N+](=O)[O-])c1.c1ccc(Oc2ccncc2)cc1 the activation of IL-2 secretion was inactive: 1.88%.
With CCOC(=O)c1ccc(NP(C)(=O)Oc2ccc(OC)cc2)cc1 (configuration not stated) the activation of IL-2 secretion was inactive: -0.701% [at 46.1 µM].
In the case of CCN(CC)CCCOC(=O)C(O)(c1ccccc1)c1ccccc1, the activation of IL-2 secretion is reported as inactive: 5.2%.
In the case of CC(C)(C)c1ccc(OP(C)(=O)Nc2ccc(SC(F)(F)F)cc2)cc1 (configuration not stated), the activation of IL-2 secretion is reported as inactive: -16.9% [at 46.1 µM].
In the case of O=[N+]([O-])c1ccc2c(c1)C=Nc1ccccc1O2, the activation of IL-2 secretion is reported as inactive: 0.339%.
For O=[N+]([O-])c1cc([N+](=O)[O-])c(Nc2cccnc2)c([N+](=O)[O-])c1, the activation of IL-2 secretion was inactive: 5.03%.
In the case of COc1ccccc1OP(C)(=O)Nc1cc(Cl)ccc1C (configuration not stated), the activation of IL-2 secretion is reported as inactive: 6.35%.
For COc1ccc(OP(C)(=O)Nc2cccc(F)c2)cc1 (configuration not stated), the activation of IL-2 secretion was inactive: 7.7%.
With Cc1cc(C)cc(OP(C)(N)=O)c1 (configuration not stated) the activation of IL-2 secretion was inactive: 4.82%.
For CCOC(=O)c1ccc(NP(C)(=O)Oc2ccccc2)cc1 (configuration not stated), the activation of IL-2 secretion was inactive: 2.23% [at 46.1 µM].
In the case of COc1ccccc1OP(C)(=O)Nc1ccc(C)cc1 (configuration not stated), the activation of IL-2 secretion is reported as inactive: -2.93%.
In the case of Cc1ccc(NP(C)(=O)Oc2ccccc2)c(C)c1 (configuration not stated), the activation of IL-2 secretion is reported as inactive: -2.92%.
With COc1ccc(OP(C)(=O)Nc2ccccc2Br)cc1 (configuration not stated) the activation of IL-2 secretion was inactive: 0.132% [at 46.1 µM].
With COc1ccccc1OP(C)(=O)Nc1ccc(C)c(C)c1 (configuration not stated) the activation of IL-2 secretion was inactive: 5.9%.
For Cc1cc(C)cc(OP(C)(=O)Nc2cccc(C(F)(F)F)c2)c1 (configuration not stated), the activation of IL-2 secretion was inactive: -8.95%.
With CP(=O)(OCCOc1ccccc1)OCCOc1ccccc1 the activation of IL-2 secretion was inactive: -3.18%.
For CP(=O)(Nc1ccc(Cl)cc1Cl)Oc1ccccc1 (configuration not stated), the activation of IL-2 secretion was inactive: -5.77%.
With CCCCCCCCCCCCCCCC1C[N+](C)(C)CCOP(C)(=O)O1 (configuration not stated) the activation of IL-2 secretion was inactive: 0.0173%.
With CN(C)CCOC(=O)C(O)(c1ccccc1)C1CCCC1 (configuration not stated) the activation of IL-2 secretion was inactive: 1.56%.
In the case of COc1ccc(OP(C)(=O)Nc2ccccn2)cc1 (configuration not stated), the activation of IL-2 secretion is reported as inactive: 2.98%.
In the case of COc1ccccc1OP(C)(=O)Nc1ccc(Br)cc1 (configuration not stated), the activation of IL-2 secretion is reported as inactive: 5.41%.
With CCc1ccc(OP(C)(=O)O)cc1 the activation of IL-2 secretion was inactive: -0.521%.
For CP(=O)(Nc1ccccn1)Oc1ccccc1 (configuration not stated), the activation of IL-2 secretion was inactive: -0.598%.
With COc1ccccc1OP(C)(=O)Nc1ccc(C)cc1C (configuration not stated) the activation of IL-2 secretion was inactive: 4.64%.
With O=[N+]([O-])c1cc([N+](=O)[O-])c(Nc2ccccn2)c([N+](=O)[O-])c1 the activation of IL-2 secretion was inactive: 3.23%.
For Cc1c(NP(C)(=O)Oc2ccc(C(C)C)cc2)c(=O)n(-c2ccccc2)n1C (configuration not stated), the activation of IL-2 secretion was inactive: -0.983%.
In the case of CP(=O)(Oc1ccccc1)N1CCOC1=O (configuration not stated), the activation of IL-2 secretion is reported as inactive: -3.04%.
For CCc1ccc(OP(C)(=O)Nc2cccnc2)cc1 (configuration not stated), the activation of IL-2 secretion was inactive: -0.0792%.
With COc1ccccc1OP(C)(=O)Nc1c(C)n(C)n(-c2ccccc2)c1=O (configuration not stated) the activation of IL-2 secretion was inactive: 2.38%.
For O=C(OCCCN1CCCC1)C(O)(c1ccccc1)C1CCCCC1 (configuration not stated), the activation of IL-2 secretion was inactive: -6.2%.
With CCN(CC)CC(O)COC(=O)C(O)(c1ccccc1)C1CCCCC1 (configuration not stated) the activation of IL-2 secretion was inactive: 3.26%.
For COc1ccc(OP(C)(=O)Nc2ccc(Br)cc2)cc1 (configuration not stated), the activation of IL-2 secretion was inactive: 4.56% [at 46.1 µM].
For CN(C)C(=O)c1c([N+](=O)[O-])cc([N+](=O)[O-])cc1[N+](=O)[O-], the activation of IL-2 secretion was inactive: 4.79%.
In the case of CC(C)(C)c1ccc(OP(C)(=O)O)cc1, the activation of IL-2 secretion is reported as inactive: 5.57%.
In the case of CP(=O)(OC12CC3CC(CC(C3)C1)C2)OC12CC3CC(CC(C3)C1)C2, the activation of IL-2 secretion is reported as inactive: -3.53%.
For CCOC(=O)c1ccc(NP(C)(=O)Oc2ccc(Cl)cc2)cc1 (configuration not stated), the activation of IL-2 secretion was inactive: -3.78% [at 46.1 µM].
For Nc1ccc2c(ccc3cccnc32)n1.O=[N+]([O-])c1cc([N+](=O)[O-])c(O)c([N+](=O)[O-])c1, the activation of IL-2 secretion was inactive: 4.86%.
With COc1ccc(NP(C)(=O)Oc2ccccc2OC)cc1 (configuration not stated) the activation of IL-2 secretion was inactive: -1.56%.
For Cc1c(C(c2ccc3c(c2)OCO3)c2c(C)n(C)n(-c3ccccc3)c2=O)c(=O)n(-c2ccccc2)n1C.O=[N+]([O-])c1cc([N+](=O)[O-])c(O)c([N+](=O)[O-])c1, the activation of IL-2 secretion was inactive: -4.1%.
For Cc1cc(-c2cccc3ccccc23)c(C)cn1.O=[N+]([O-])c1cc([N+](=O)[O-])c(O)c([N+](=O)[O-])c1, the activation of IL-2 secretion was inactive: 7.54%.
In the case of O=[N+]([O-])c1ccc(OP2(=O)COCCO2)cc1 (configuration not stated), the activation of IL-2 secretion is reported as inactive: 5.29%.
For CCOP(C)(=S)SCC(=O)NC(C)(CC)C(=O)O (configuration not stated), the activation of IL-2 secretion was inactive: 11.8%.
With CP(=O)(Nc1ccc(SC(F)(F)F)cc1)Oc1ccc(F)cc1 (configuration not stated) the activation of IL-2 secretion was inactive: 10.3%.
With Cc1ccccc1NP(C)(=O)Nc1ccccc1C the activation of IL-2 secretion was inactive: 2.19%.
With CP(=O)(Nc1ccc2c(c1)OCCO2)Oc1ccccc1 (configuration not stated) the activation of IL-2 secretion was inactive: 2.1% [at 46.1 µM].
For CC(C)c1ccc(OP(C)(=O)Nc2ccc(SC(F)(F)F)cc2)cc1 (configuration not stated), the activation of IL-2 secretion was inactive: 1.1% [at 46.1 µM].
With CP(=O)(Nc1ccccc1F)Oc1ccccc1 (configuration not stated) the activation of IL-2 secretion was inactive: 3.04%.
In the case of O=C(OCCN1CCN(CCOCc2ccccc2)CC1)C(O)(c1ccccc1)c1ccccc1, the activation of IL-2 secretion is reported as inactive: -2.37% [at 46.1 µM].
With COc1ccc(OP(C)(=O)Nc2ccc(SC(F)(F)F)cc2)cc1 (configuration not stated) the activation of IL-2 secretion was inactive: -1.22%.
For CCOC(=O)c1ccc(NP(C)(=O)Oc2ccc(F)cc2)cc1 (configuration not stated), the activation of IL-2 secretion was inactive: -1.02% [at 46.1 µM].
For CCCCCOc1ccc(NP(C)(=O)Oc2ccc(Cl)cc2Cl)cc1 (configuration not stated), the activation of IL-2 secretion was inactive: -4.66%.
In the case of CP(=O)(Nc1ccccc1)Oc1ccc(F)cc1 (configuration not stated), the activation of IL-2 secretion is reported as inactive: 2.68%.
For CCN(CC)CCCOC(=O)C(O)(c1ccccc1)C1CCCCC1 (configuration not stated), the activation of IL-2 secretion was inactive: -1.53% [at 46.1 µM].
In the case of Cc1c([N+](=O)[O-])cc([N+](=O)[O-])c(Br)c1[N+](=O)[O-], the activation of IL-2 secretion is reported as inactive: 3.97%.
